# Antibody variant affinities, Ab-14 heavy chain, assay B

Source: Li et al. 2023 (doi:10.1038/s41467-023-39022-2), MIT Lincoln Laboratory and A-Alpha Bio; data file from the FLAb repository.

The target is the same throughout: PDVDLGDISGINAS, from the HR2 region of SARS-CoV-2 spike.

Parent scFv Ab-14: VH joined to VL by a 15-residue (Gly4Ser)3 linker. Changes lie in the heavy chain CDRs alone.
VH: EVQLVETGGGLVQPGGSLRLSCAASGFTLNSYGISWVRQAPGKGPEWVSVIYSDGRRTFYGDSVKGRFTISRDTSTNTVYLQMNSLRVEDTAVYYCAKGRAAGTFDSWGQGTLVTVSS
VL: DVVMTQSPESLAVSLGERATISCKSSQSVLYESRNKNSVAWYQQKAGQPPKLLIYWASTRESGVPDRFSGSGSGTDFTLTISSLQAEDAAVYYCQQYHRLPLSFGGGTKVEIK

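The parent was found by panning a naive human phage display library on the peptide. This is the validation round: designs drawn from the data on random variants, tested in the same kind of assay. Group labels follow the data file (Ctrl: baseline library sampled from a position-specific scoring matrix, with some repeated check sequences; Rand: our label for a block that the file lists under HC and that is probably the random mutants of the ten best first-round binders; En: ensemble of fine-tuned language models; GP: Gaussian process model; GPLM: also part of the Gaussian process libraries; HC: hill climbing; Gen: genetic algorithm; Gibbs: Gibbs sampling; a sequence that several methods proposed may carry one label only). The assay is AlphaSeq: two haploid yeast populations carry antibody and antigen on their surface. Mating (16 h, 30 °C) was followed by selection of diploids and sequencing of their barcodes. A regression on co-assayed BCL2-family reference pairs converts the normalised counts of each replicate to an apparent Kd. The assay was run in six technical replicates.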

Variants are written as CDR1, CDR2 and CDR3 of the heavy chain (limits as in the source). Parent: GFTLNSYGIS, VIYSDGRRTFYGDSVK, GRAAGTFDS.
Values are log10 of the apparent Kd in nM; lower means stronger binding.
Replicates are averaged; those with no signal do not enter the mean.
Where no diploid with the target was found in any replicate, the entry reads "not detected": below detection, most likely a poor binder, though not proof of it.
The range of this assay differs from that of the first round, and the authors advise against merging the two.

| mean, log10 nM | detected | CDR-H1 | CDR-H2 | CDR-H3 | group |
|---|---|---|---|---|---|
| 1.47 | 5 of 6 | GFTLNSYGIS | VIYSDGKRTFYGDRVK | GRTAGTFDT | GP_Gen |
| -0.14 | 6 of 6 | GFDLNEYGIS | VIYADGRRTAYIDSVK | GHEAGTFDV | En_HC |
| not detected | 0 of 6 | GFTLNSYGIS | VIYADGRRTRYGDSVK | GRAAGTNKS | Rand |
| -0.78 | 6 of 6 | GFDLDEYGIS | VIYADGVRTAYVDSVK | GNNAGTFDV | En_Gen |
| 0.59 | 6 of 6 | GFDLQEYGVS | VIYADGVRSAYTDSVK | GRVTIGYLD | En_Gibbs |
| -0.49 | 6 of 6 | GFDLNEYGIS | VIYADGRRTFYADSVK | GEVAGTFDM | En_HC |
| 0.65 | 6 of 6 | GFSLNSYGIS | VIYSDGRRTFYADSVK | GQAAGTFDD | GPLM_Gen |
| not detected | 0 of 6 | GFTLNSYGIR | VIYSDGRRTFYGDSVK | GNAAGTFDS | Ctrl |
| -0.15 | 6 of 6 | GFDLNEYGIS | VIYADGMRTAYKDSVK | GENAGTFDV | En_Gen |
| 1.27 | 1 of 6 | GSTLNSYGIS | VIYSGGRRTFYSDEAK | GRAGGTFDS | Rand |
| 0.02 | 6 of 6 | GFTLNEYGIS | VIYSDGRRTFYKDSVK | GRMAGTFDS | GP_HC |
| 1.55 | 4 of 6 | GFQLNSYGIS | VIYSDGRRTFYIDSVK | GQAAGTFDS | GPLM_Gen |
| -0.29 | 6 of 6 | GFSLNEYGIS | VIYSDGRRTFYGDSVK | GRAAGTFDT | GPLM_Gen |
| -0.32 | 1 of 6 | GFTLNSYGIS | VIYSDGRRTFIDDSVK | GQLAGTFHS | Rand |
| not detected | 0 of 6 | GFNLDEYGIS | VIYADGQRTYYAEDVK | GKTGDHLFI | En_Gibbs |
| 1.46 | 1 of 6 | GFDLNSYGES | VIYSDGRRTFYGDAVK | HRAAGLFDS | Ctrl |
| 1.40 | 3 of 6 | SFELNMYGIS | VIYSDGRRTFYGDSVK | GQTAGTFDS | GP_Gibbs |
| not detected | 0 of 6 | GKSLDEYGIS | VIYADGLRMVYANSVK | GQSTDTLLL | En_Gibbs |
| not detected | 0 of 6 | GFQLNEYGIS | VIYSDGRRTFYGDQVK | GRTAGTFSS | GP_Gibbs |
| -0.25 | 6 of 6 | GFDLDEYGIS | VIYADGMRTAYTDSVK | GENAGTFDT | En_Gen |
| 0.51 | 6 of 6 | GFSIDEYGIS | VIYADGLRQHYTNAVK | GEAAGTFDM | En_Gibbs |
| 1.18 | 6 of 6 | GFNLNSYGIS | VIYSDGRRTFYADPVK | GQAAGTFDS | GPLM_Gen |
| not detected | 0 of 6 | GFTLNSYGIS | VIYSDGRRTFYGDSVK | GTATGTFDS | Ctrl |
| -0.06 | 6 of 6 | GFQLNEYGIS | VIYSDGRRTFYQDSVK | GRTAGTFDS | GP_Gen |
| -0.13 | 6 of 6 | GFDLNEYGIS | VIYADGMRTAYADSVK | GENAGTFDK | En_Gen |
| 2.50 | 1 of 6 | GMDLEEYGIS | VIYADGMRTYAVDSVK | GDQGGTLGY | En_Gibbs |
| -0.03 | 6 of 6 | GFDLNSYGIS | VIYSDGRRTFYDDSVK | GRQAGTFDS | GP_Gen |
| -0.51 | 6 of 6 | GFDLNEYGIS | VIYADGMRTAYTDSVK | GEVAGTFDV | En_Gen |
| 1.12 | 1 of 6 | GFTLLSYGIS | VIYSDGRRTFYMDSVE | GSAAGTFDS | Ctrl |
| -0.56 | 6 of 6 | GFDLSEYGIS | VIYADGRRTAYTDSVK | GEVAGTFDV | En_HC |
| not detected | 0 of 6 | GFQLDEYGIS | VIYADGLRTAYKDTVK | GSDTGLEMF | En_Gibbs |
| not detected | 0 of 6 | GFDLEEYGVS | VIYADGHRTQYSDNVK | GVESASIQN | En_Gibbs |
| -0.01 | 6 of 6 | GFDLNSYGIS | VIYSDGRRTFYQDSVK | GRIAGTFDS | GP_Gen |
| 1.34 | 3 of 6 | GFTLNDYGIS | VIYSDGRRTWYIDSVK | GRAAGTFDA | GP_HC |
| -0.67 | 6 of 6 | GFDLNEYGIS | VIYADGKRTAYAESVK | GNQAGTFDV | En_Gen |
| 0.64 | 6 of 6 | GFDLNEYGIS | VIYADGRRTFYTDSVK | GNNAGTFLV | En_HC |
| 0.60 | 6 of 6 | GFHLNSYGIS | VIYSDGRRTFYHDSVK | GQTAGTFDS | GPLM_Gen |
| 0.19 | 6 of 6 | GFNLNSYGIS | VIYSDGRRTFYVDSVK | GNQAGTFDS | GP_Gibbs |
| 1.14 | 6 of 6 | GFTLNDYGIS | VIYSDGRRTFYGDSVK | GRWAGTFDS | Ctrl |
| -0.07 | 6 of 6 | GFTLNSYGIS | VIYSDGRRTFYSDSVK | GQEAGTFDA | GPLM_Gibbs |
| 0.05 | 6 of 6 | GFDLNEYGIS | VIYADGMRTFYADDVK | GQNAGTFDV | En_Gen |
| not detected | 0 of 6 | GFNLNSYGGS | VIYSDGRRTFYGDSVK | GREAGTGDS | Ctrl |
| -0.24 | 6 of 6 | GFDLNEYGIS | VIYADGMRTFYIDSVK | GEQAGTFDL | En_HC |
| 1.29 | 4 of 6 | GFNLNSYGIS | VIYSDGRRTFYVDDVK | GRQAGTFDS | GPLM_Gibbs |
| not detected | 0 of 6 | KFNLNSYGIS | VIYSDGRRTFYIDSVK | GRLAGTFDS | GP_Gibbs |
| -0.42 | 6 of 6 | GFDLNEYGIS | VIYADGRRTFYIDSVK | GEQAGTFNV | En_HC |
| not detected | 0 of 6 | GFKLDEYGIS | VIYADGQRKSYADSVK | GQINVYYTA | En_Gibbs |

Repeated from above, the 8 best binders with a signal in all replicates:

CDR-H1,CDR-H2,CDR-H3,group,"mean, log10 nM",detected
GFDLDEYGIS,VIYADGVRTAYVDSVK,GNNAGTFDV,En_Gen,-0.78,6 of 6
GFDLNEYGIS,VIYADGKRTAYAESVK,GNQAGTFDV,En_Gen,-0.67,6 of 6
GFDLSEYGIS,VIYADGRRTAYTDSVK,GEVAGTFDV,En_HC,-0.56,6 of 6
GFDLNEYGIS,VIYADGMRTAYTDSVK,GEVAGTFDV,En_Gen,-0.51,6 of 6
GFDLNEYGIS,VIYADGRRTFYADSVK,GEVAGTFDM,En_HC,-0.49,6 of 6
GFDLNEYGIS,VIYADGRRTFYIDSVK,GEQAGTFNV,En_HC,-0.42,6 of 6
GFSLNEYGIS,VIYSDGRRTFYGDSVK,GRAAGTFDT,GPLM_Gen,-0.29,6 of 6
GFDLDEYGIS,VIYADGMRTAYTDSVK,GENAGTFDT,En_Gen,-0.25,6 of 6

The parent sequence was in this pool as ten entries: three were never detected, three once, and four in most replicates, with averages from 0.34 to 2.37.
Background: pairings of all heavy chain designs with three empty control strains gave a value in 1% of cases (median 2.08, 5th percentile 0.84). Values in that range, when seen in few replicates, are hard to tell from nonspecific mating.
The authors' rule: three or more of the six replicates give a measured affinity, fewer mean a poor binder.